From PubChem BioAssay (NCI)
Some results for these compounds are left out of this collection, so the calls shown say nothing about other tests.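 Growth conditions: 96-well plates. Treatment: test compound, 48 hours, 5 concentrations. Analysis: linear interpolation between bracketing concentrations; unreached endpoints set to highest concentration. GI50 marks 50% less growth. Definition used: TGI = concentration required for complete inhibition of growth.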

Assays:
Experiment in all cases: NCI-60 cell line screen, 48 h; in the data active = GI50 below about 0.43 µM; inactive = the rest
786-0 renal = tested on: 786-0 renal
A498 renal = tested on: A498 renal
A549 NSCLC = tested on: A549 NSCLC
ACHN renal = tested on: ACHN renal
BT-549 breast = tested on: BT-549 breast
CAKI-1 renal = tested on: CAKI-1 renal
CCRF-CEM leukemia = tested on: CCRF-CEM leukemia
COLO 205 colon = tested on: COLO 205 colon
DU-145 prostate = tested on: DU-145 prostate
EKVX NSCLC = tested on: EKVX NSCLC
HCT-116 colon = tested on: HCT-116 colon
HCT-15 colon = tested on: HCT-15 colon
HL-60(TB) leukemia = tested on: HL-60(TB) leukemia
HOP-62 NSCLC = tested on: HOP-62 NSCLC
HOP-92 NSCLC = tested on: HOP-92 NSCLC
HS 578T breast = tested on: HS 578T breast
HT29 colon = tested on: HT29 colon
IGROV1 ovarian = tested on: IGROV1 ovarian
K-562 leukemia = tested on: K-562 leukemia
LOX IMVI melanoma = tested on: LOX IMVI melanoma
M14 melanoma = tested on: M14 melanoma
MALME-3M melanoma = tested on: MALME-3M melanoma
MCF7 breast = tested on: MCF7 breast
MDA-MB-231 breast = tested on: MDA-MB-231 breast
MDA-MB-435 = tested on: MDA-MB-435
MDA-N = tested on: MDA-N
MOLT-4 leukemia = tested on: MOLT-4 leukemia
NCI-H226 lung = tested on: NCI-H226 lung
NCI-H23 lung = tested on: NCI-H23 lung
NCI-H322M lung = tested on: NCI-H322M lung
NCI-H522 lung = tested on: NCI-H522 lung
NCI/ADR-RES ovarian = tested on: NCI/ADR-RES ovarian
OVCAR-3 ovarian = tested on: OVCAR-3 ovarian
OVCAR-4 ovarian = tested on: OVCAR-4 ovarian
OVCAR-5 ovarian = tested on: OVCAR-5 ovarian
PC-3 prostate = tested on: PC-3 prostate
RPMI-8226 leukemia = tested on: RPMI-8226 leukemia
RXF 393 renal = tested on: RXF 393 renal
SF-268 CNS = tested on: SF-268 CNS
SF-295 CNS = tested on: SF-295 CNS
SF-539 CNS = tested on: SF-539 CNS
SK-MEL-2 melanoma = tested on: SK-MEL-2 melanoma
SK-MEL-28 melanoma = tested on: SK-MEL-28 melanoma
SK-MEL-5 melanoma = tested on: SK-MEL-5 melanoma
SK-OV-3 ovarian = tested on: SK-OV-3 ovarian
SN12C renal = tested on: SN12C renal
SNB-19 CNS = tested on: SNB-19 CNS
SNB-75 CNS = tested on: SNB-75 CNS
SR leukemia = tested on: SR leukemia
T-47D breast = tested on: T-47D breast
TK-10 renal = tested on: TK-10 renal
U251 CNS = tested on: U251 CNS
UACC-257 melanoma = tested on: UACC-257 melanoma
UACC-62 melanoma = tested on: UACC-62 melanoma
UO-31 renal = tested on: UO-31 renal

O=C(OC1CN2CCC1CC2)C(O)(Cc1ccccc1)C1CC1 (stereo not given)
46.1 µM: TGI (786-0 renal)
> 100 µM: TGI (A498 renal) | TGI (A549 NSCLC) | TGI (ACHN renal) | TGI (BT-549 breast) | TGI (CAKI-1 renal) | TGI (CCRF-CEM leukemia) | TGI (COLO 205 colon) | TGI (DU-145 prostate) | TGI (EKVX NSCLC) | TGI (HCT-116 colon) | TGI (HCT-15 colon) | TGI (HL-60(TB) leukemia) | TGI (HOP-62 NSCLC) | TGI (HOP-92 NSCLC) | TGI (HS 578T breast) | TGI (HT29 colon) | TGI (IGROV1 ovarian) | TGI (K-562 leukemia) | TGI (LOX IMVI melanoma) | TGI (M14 melanoma) | TGI (MALME-3M melanoma) | TGI (MCF7 breast) | TGI (MDA-MB-231 breast) | TGI (MDA-MB-435) | TGI (MDA-N) | TGI (MOLT-4 leukemia) | TGI (NCI-H226 lung) | TGI (NCI-H23 lung) | TGI (NCI-H322M lung) | TGI (NCI-H522 lung) | TGI (OVCAR-3 ovarian) | TGI (OVCAR-4 ovarian) | TGI (OVCAR-5 ovarian) | TGI (PC-3 prostate) | TGI (RPMI-8226 leukemia) | TGI (RXF 393 renal) | TGI (SF-268 CNS) | TGI (SF-295 CNS) | TGI (SF-539 CNS) | TGI (SK-MEL-2 melanoma) | TGI (SK-MEL-28 melanoma) | TGI (SK-MEL-5 melanoma) | TGI (SK-OV-3 ovarian) | TGI (SN12C renal) | TGI (SNB-19 CNS) | TGI (SNB-75 CNS) | TGI (SR leukemia) | TGI (T-47D breast) | TGI (TK-10 renal) | TGI (U251 CNS) | TGI (UACC-257 melanoma) | TGI (UACC-62 melanoma) | TGI (UO-31 renal)
28.4 µM: TGI (NCI/ADR-RES ovarian)
inactive: GI50 (786-0 renal) 21.6 µM | GI50 (A498 renal) > 100 µM | GI50 (A549 NSCLC) > 100 µM | GI50 (ACHN renal) > 100 µM | GI50 (BT-549 breast) > 100 µM | GI50 (CAKI-1 renal) > 100 µM | GI50 (CCRF-CEM leukemia) > 100 µM | GI50 (COLO 205 colon) > 100 µM | GI50 (DU-145 prostate) > 100 µM | GI50 (EKVX NSCLC) > 100 µM | GI50 (HCT-116 colon) > 100 µM | GI50 (HCT-15 colon) > 100 µM | GI50 (HL-60(TB) leukemia) > 100 µM | GI50 (HOP-62 NSCLC) > 100 µM | GI50 (HOP-92 NSCLC) > 100 µM | GI50 (HS 578T breast) 33.3 µM | GI50 (HT29 colon) > 100 µM | GI50 (IGROV1 ovarian) > 100 µM | GI50 (K-562 leukemia) > 100 µM | GI50 (LOX IMVI melanoma) > 100 µM | GI50 (M14 melanoma) > 100 µM | GI50 (MALME-3M melanoma) > 100 µM | GI50 (MCF7 breast) > 100 µM | GI50 (MDA-MB-231 breast) > 100 µM | GI50 (MDA-MB-435) > 100 µM | GI50 (MDA-N) > 100 µM | GI50 (MOLT-4 leukemia) > 100 µM | GI50 (NCI-H226 lung) > 100 µM | GI50 (NCI-H23 lung) > 100 µM | GI50 (NCI-H322M lung) > 100 µM | GI50 (NCI-H522 lung) > 100 µM | GI50 (NCI/ADR-RES ovarian) 15 µM | GI50 (OVCAR-3 ovarian) > 100 µM | GI50 (OVCAR-4 ovarian) > 100 µM | GI50 (OVCAR-5 ovarian) > 100 µM | GI50 (PC-3 prostate) > 100 µM | GI50 (RPMI-8226 leukemia) > 100 µM | GI50 (RXF 393 renal) 97.7 µM | GI50 (SF-268 CNS) > 100 µM | GI50 (SF-295 CNS) > 100 µM | GI50 (SF-539 CNS) > 100 µM | GI50 (SK-MEL-2 melanoma) > 100 µM | GI50 (SK-MEL-28 melanoma) > 100 µM | GI50 (SK-MEL-5 melanoma) > 100 µM | GI50 (SK-OV-3 ovarian) > 100 µM | GI50 (SN12C renal) > 100 µM | GI50 (SNB-19 CNS) > 100 µM | GI50 (SNB-75 CNS) 80.6 µM | GI50 (SR leukemia) > 100 µM | GI50 (T-47D breast) > 100 µM | GI50 (TK-10 renal) > 100 µM | GI50 (U251 CNS) > 100 µM | GI50 (UACC-257 melanoma) > 100 µM | GI50 (UACC-62 melanoma) > 100 µM | GI50 (UO-31 renal) > 100 µM
